From ChEMBL document CHEMBL3259727, “Cathepsin C inhibitors: property optimization and identification of a clinical candidate” (J Med Chem, 2014)

The chains behind the UniProt entries cited, without tags or fusion partners. Residues count along the entry.
UniProt P53634, 395-463 limits assumed: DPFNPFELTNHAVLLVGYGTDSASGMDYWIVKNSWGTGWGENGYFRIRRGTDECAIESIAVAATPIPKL
UniProt P53634, 25-134 limits assumed: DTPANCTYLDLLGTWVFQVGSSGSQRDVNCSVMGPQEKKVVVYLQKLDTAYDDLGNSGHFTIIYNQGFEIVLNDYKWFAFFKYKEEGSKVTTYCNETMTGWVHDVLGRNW
UniProt P53634, 231-394 limits assumed: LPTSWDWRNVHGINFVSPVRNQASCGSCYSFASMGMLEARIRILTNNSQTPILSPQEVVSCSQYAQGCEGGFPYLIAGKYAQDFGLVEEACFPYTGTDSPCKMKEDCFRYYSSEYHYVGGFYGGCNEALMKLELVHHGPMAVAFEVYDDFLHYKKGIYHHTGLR

Experiments:
Dipeptidyl peptidase 1 [1] = molecular target: T1, Dipeptidyl peptidase 1 (Homo sapiens, UniProt P53634); experiment: Inhibition of recombinant human cathepsin C using H-Gly-Arg-AMC as substrate preincubated for 30 mins before substrate addition measured after 60 mins by fluorescence assay
Dipeptidyl peptidase 1 [2] = molecular target: T1, Dipeptidyl peptidase 1; experiment: Inhibition of cathepsin C in human THP1 cells assessed as inhibition of H-Gly-Phe-AFC cleavage by fluorescence assay; format: cell-based, THP-1
Procedure, shortened: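 Cellular CatC activity in human THP1 cells measured as cleavage of fluorogenic substrate H-Gly-Phe-AFC; pIC50 determined.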

IC50 (Dipeptidyl peptidase 1 [1]): 1 nM | IC50 (Dipeptidyl peptidase 1 [2]): 5.01 nM
SMILES: N#Cc1ccc(-c2ccc(C[C@@H](C#N)NC(=O)C3(N)CCOCC3)cc2)cc1
